Several values for one entry are separate records, joined by “and”; a condition that tells them apart may be missing. Identical values can stand only once.
Test system: MCF-7/NOD1 cells, GM-Tri-DAP induced IL-8 secretion
Assay: inhibition of NOD1-driven IL-8 release, SAR follow-up, MCF-7/NOD1 cells, GM-Tri-DAP stimulus (AID 2250)

- IC50: 620 nM and 810 nM
Structure (SMILES): Cc1ccc(S(=O)(=O)n2c(N)nc3ccccc32)cc1

Source: PubChem BioAssay AID2250 (Sanford-Burnham Center for Chemical Genomics, 2010)
